Data published in patent US5859257A (dated 1999).

biological target: COX-2; assay: Evaluation of COX-2 activity in vitro (PGE2 ELISA, recombinant enzyme); assay type: biochemical, human or murine; conditions: read-out: COX-2 IC50, arachidonic acid 10 μM, pH 8.0, pre-incubation 10-20 minutes

| Compound | pIC50 |
| --- | --- |
| NS(=O)(=O)c1ccc(-c2c(-c3ccccc3)noc2C2CCCCC2)cc1 [Example 1f, 4-[5-cyclohexyl-3-phenylisoxazol-4-yl]benzenesulfonamide] | 6.70 |
| NS(=O)(=O)c1ccc(-c2c(-c3ccccc3)noc2CC(=O)O)cc1 [Example 9, [4-[4-(Aminosulfonyl)phenyl]-3-phenylisoxazol-5-yl]acetic acid] | 5.85 |
| Cc1noc(-c2ccccc2)c1-c1ccc(S(N)(=O)=O)cc1 [Example 13, 4-[3-Methyl-5-phenylisoxazol-4-yl]benzenesulfonamide] | > 7.00 |
| CCc1noc(-c2ccccc2)c1-c1ccc(S(C)(=O)=O)cc1 [Example 29, 3-Ethyl-4-(4-methylsulfonylphenyl)-5-phenylisoxazole] | 6.52 |
| Cc1onc(-c2ccc(F)c(F)c2)c1-c1ccc(S(N)(=O)=O)cc1 [Example 49, 4-[3-(3,4-Difluorophenyl)-5-methylisoxazol-4-yl]benzenesulfonamide] | 6.00 |

biological target: COX-1; assay: Evaluation of COX-1 activity in vitro (PGE2 ELISA, recombinant enzyme); assay type: biochemical, human or murine; conditions: read-out: COX-1 IC50, arachidonic acid 10 μM, pH 8.0, pre-incubation 10-20 minutes

| Compound | pIC50 |
| --- | --- |
| Cc1onc(-c2ccccc2)c1-c1ccc(S(N)(=O)=O)cc1 [Example 1, 4-[5-Methyl-3-phenylisoxazol-4-yl]benzenesulfonamide] | < 4.00 |

pIC50: −log10 of the molar value.
